14 compounds from PubChem BioAssay (NCI) can be followed below.

Only a part is listed here, and it is no random draw.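 Step 1: grow cells in 96-well plates. Step 2: add test compound at a single concentration. Step 3: incubate 48 h. Step 4: record percent growth.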 Calls of active or inactive are those of the source. How the source made its calls: active means growth percent below 10; inactive means the rest.

In this test the test system is MDA-MB-468 breast. Description: NCI-60 one-dose screen, 48 h (100 = growth as untreated, 0 = no growth, -100 = all killed). The settings on record: 10 µM.
For the compound `O=C(OCCN1CCCCCCCC1)C(O)(c1ccccc1)c1ccccc1`, the growth was inactive: 105%. `CN(CCCl)CCCCCCCl`: the growth is inactive: 94.2%. Next, `NC(=NCCN/C(N)=N/[N+](=O)[O-])N[N+](=O)[O-]`: inactive: 109%. In the case of `O=[N+]([O-])c1cc([N+](=O)[O-])c(C(F)(F)F)c([N+](=O)[O-])c1O`, the growth was inactive: 98.1%.

`Cc1c([N+](=O)[O-])c(C)c([N+](=O)[O-])c(C)c1[N+](=O)[O-]`: the growth is inactive: 111%. Turning to `O=[N+]([O-])c1cc([N+](=O)[O-])c(O)c([N+](=O)[O-])c1.c1ccnnc1`, the growth was inactive: 94.6%. Under `Cc1c([N+](=O)[O-])c(C)c([N+](=O)[O-])c(Nc2c([N+](=O)[O-])c(C)c([N+](=O)[O-])c(C)c2[N+](=O)[O-])c1[N+](=O)[O-]` stands active: -6.94%; under `Clc1ccccc1SCCBr`, inactive: 99.6%; under `CCOC(=O)CSc1c(N)c(C)nn1C.O=[N+]([O-])c1cc([N+](=O)[O-])c(O)c([N+](=O)[O-])c1`, inactive: 108%.

As to `COc1ccccc1-c1ccccn1.O=[N+]([O-])c1cc([N+](=O)[O-])c(O)c([N+](=O)[O-])c1`, the growth is inactive: 105%.

Take `Nc1cccc(Cl)c1.O=[N+]([O-])c1cc([N+](=O)[O-])c(O)c([N+](=O)[O-])c1`: the growth was inactive: 98.5%. In the case of `Nc1cc([As](Cl)Cl)cc(N)c1O`, the growth was inactive: 56.1%. Take `N=C(N)N(N)[N+](=O)[O-]`: the growth is inactive: 101%. In the case of `CNc1ccccc1.O=[N+]([O-])c1cc([N+](=O)[O-])c(O)c([N+](=O)[O-])c1`, the growth is inactive: 100%.
